{
  "source": "patent US10238658B2",
  "about": "“1-pyrazolyl-3-(4-((2-anilinopyrimidin-4-yl) oxy) napththalen-1-yl) ureas as p38 MAP kinase inhibitors” (Respivert Limited, priority 2011, dated 2019)",
  "key": {"ICAM-1": {"system": "ICAM-1", "assay": "Rhinovirus-induced ICAM-1 expression in BEAS2B cells", "format": "cell-based", "conditions": "Homo sapiens, BEAS-2B, read-out: IC50 Values for HRV Stimulated Release/Expression ICAM1 (BEAS2B)", "procedure": "(§1) Human rhinovirus RV16 was obtained from the American Type Culture Collection (Manassas, Va.). Viral stocks were generated by infecting Hela cells with HRV until 80% of the cells were cytopathic.\n(§2) BEAS2B cells were infected with HRV at an MOI of 5 and incubated for 2 hr at 33° C. with gentle shaking for to promote absorption. The cells were then washed with PBS, fresh media added and the cells were incubated for a further 72 hr. The supernatant was collected for assay of IL-8 concentrations using a Duoset ELISA development kit (R&D systems, Minneapolis, Minn.).\nThe level of cell surface ICAM-1 expression was determined by cell-based ELISA. At 72 hr after infection, cells were fixed with 4% formaldehyde in PBS. After quenching endogenous peroxidase by adding 0.1% sodium azide and 1% hydrogen peroxide, wells were washed with wash-buffer (0.05% Tween in PBS: PBS-Tween). […] The ICAM-1 signal was detected by adding substrate and reading at 450 nm with a reference wavelength of 655 nm using a spectrophotometer. The wells were then washed with PBS-Tween and total cell numbers in each well were determined by reading absorbance at 595 nm after Crystal Violet staining and elution by 1% SDS solution. The measured OD450-655 readings were corrected for cell number by dividing with the OD595 reading in each well. […]"}, "IL-8": {"system": "IL-8", "assay": "Rhinovirus-induced IL-8 release in BEAS2B cells", "format": "cell-based", "conditions": "Homo sapiens, BEAS-2B, HRV-16", "procedure": "as §1\nas §2, with “Minn.). […]” for “Minn.).”"}},
  "data": [
    {"smiles": "COCC(=O)Nc1cc(Oc2ccc(NC(=O)Nc3cc(C(C)(C)C)nn3-c3ccc(C)cc3)c3ccccc23)ccn1", "note": "[Reference Compound, N-(4-(4-(3-(3-tert-butyl-1-p-tolyl-1H-pyrazol-5-yl)ureido)naphthalen-1-yloxy)pyridin-2-yl)-2-methoxyacetamide, reference compound]", "values": [
      {"measurement": "IC50", "setting": "ICAM-1", "value": 0.37, "unit": "nM"},
      {"measurement": "IC50", "setting": "IL-8", "value": 0.065, "unit": "nM"}
    ]}
  ]
}
